Reference: paper PMC4669970 (Biochemical pharmacology, 2015)

By UniProt entry, the sequences of proteins in these tests, tags left out. Residues count along the entry.
UniProt P06276, 29-602: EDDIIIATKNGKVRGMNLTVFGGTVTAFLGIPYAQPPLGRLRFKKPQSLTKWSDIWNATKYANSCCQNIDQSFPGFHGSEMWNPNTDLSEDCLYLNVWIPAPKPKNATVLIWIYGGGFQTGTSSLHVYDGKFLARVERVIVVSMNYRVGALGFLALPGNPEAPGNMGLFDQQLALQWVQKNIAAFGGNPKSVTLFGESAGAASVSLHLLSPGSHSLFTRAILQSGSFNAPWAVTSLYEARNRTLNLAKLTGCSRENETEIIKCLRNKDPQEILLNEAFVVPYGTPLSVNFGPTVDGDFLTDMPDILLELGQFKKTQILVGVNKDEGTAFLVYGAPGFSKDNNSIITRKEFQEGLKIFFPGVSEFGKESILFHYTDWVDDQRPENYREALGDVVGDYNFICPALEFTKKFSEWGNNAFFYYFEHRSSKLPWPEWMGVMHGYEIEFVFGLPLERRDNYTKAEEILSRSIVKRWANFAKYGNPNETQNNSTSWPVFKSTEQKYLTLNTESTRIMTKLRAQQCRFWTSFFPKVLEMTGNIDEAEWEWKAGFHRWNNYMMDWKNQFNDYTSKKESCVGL

Target: human BChE (Homo sapiens, UniProt P06276)
Assay: Inhibition of BChE-catalysed ghrelin hydrolysis by BChE-specific inhibitors
Assay type: biochemical
Details: parallel assays, modest concentrations of inhibitor

CC(C)NP(=O)(NC(C)C)OP(=O)(NC(C)C)NC(C)C [iso-OMPA]
effect on BChE ghrelin hydrolysis reactions: stopped those reactions completely
